Assay results as given in article PMC8800018, “Discovery of novel selective PI3Kγ inhibitors through combining machine learning-based virtual screening with multiple protein structures and bio-evaluation” (Journal of Advanced Research, 2021).

Protein sequences, listed by entry. Tags and fused reporters are not part of them. Lines headed by an entry give the natural chain unless they say otherwise; changes in a name come on top.
UniProt O00329, whole entry: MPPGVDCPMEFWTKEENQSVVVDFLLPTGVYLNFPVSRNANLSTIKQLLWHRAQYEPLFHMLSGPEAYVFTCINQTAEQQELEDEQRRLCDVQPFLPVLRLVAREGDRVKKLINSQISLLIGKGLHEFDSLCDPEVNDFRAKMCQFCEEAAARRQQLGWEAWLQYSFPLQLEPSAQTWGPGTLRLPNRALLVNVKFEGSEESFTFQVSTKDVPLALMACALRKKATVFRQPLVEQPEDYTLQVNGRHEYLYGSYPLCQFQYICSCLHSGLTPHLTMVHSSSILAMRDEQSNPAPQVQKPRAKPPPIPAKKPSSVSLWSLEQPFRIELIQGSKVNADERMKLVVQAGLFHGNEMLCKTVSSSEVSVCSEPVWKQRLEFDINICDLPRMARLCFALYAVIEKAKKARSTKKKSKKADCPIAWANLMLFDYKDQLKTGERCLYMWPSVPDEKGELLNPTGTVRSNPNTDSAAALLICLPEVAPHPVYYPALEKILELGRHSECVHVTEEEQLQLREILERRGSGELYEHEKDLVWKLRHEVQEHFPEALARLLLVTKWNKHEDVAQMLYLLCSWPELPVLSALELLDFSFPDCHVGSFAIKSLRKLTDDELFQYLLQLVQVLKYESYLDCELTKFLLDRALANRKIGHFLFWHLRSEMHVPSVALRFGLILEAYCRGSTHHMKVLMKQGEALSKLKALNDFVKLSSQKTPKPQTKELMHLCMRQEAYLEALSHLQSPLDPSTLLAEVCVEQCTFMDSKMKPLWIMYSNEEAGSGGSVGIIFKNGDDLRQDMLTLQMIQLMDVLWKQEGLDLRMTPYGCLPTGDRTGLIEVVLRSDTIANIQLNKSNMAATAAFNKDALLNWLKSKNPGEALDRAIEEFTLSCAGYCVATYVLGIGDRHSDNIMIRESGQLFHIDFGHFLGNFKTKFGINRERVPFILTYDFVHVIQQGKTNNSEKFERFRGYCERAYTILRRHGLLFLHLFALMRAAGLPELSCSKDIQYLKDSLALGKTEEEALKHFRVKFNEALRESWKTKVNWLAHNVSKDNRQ
UniProt P42338, whole entry: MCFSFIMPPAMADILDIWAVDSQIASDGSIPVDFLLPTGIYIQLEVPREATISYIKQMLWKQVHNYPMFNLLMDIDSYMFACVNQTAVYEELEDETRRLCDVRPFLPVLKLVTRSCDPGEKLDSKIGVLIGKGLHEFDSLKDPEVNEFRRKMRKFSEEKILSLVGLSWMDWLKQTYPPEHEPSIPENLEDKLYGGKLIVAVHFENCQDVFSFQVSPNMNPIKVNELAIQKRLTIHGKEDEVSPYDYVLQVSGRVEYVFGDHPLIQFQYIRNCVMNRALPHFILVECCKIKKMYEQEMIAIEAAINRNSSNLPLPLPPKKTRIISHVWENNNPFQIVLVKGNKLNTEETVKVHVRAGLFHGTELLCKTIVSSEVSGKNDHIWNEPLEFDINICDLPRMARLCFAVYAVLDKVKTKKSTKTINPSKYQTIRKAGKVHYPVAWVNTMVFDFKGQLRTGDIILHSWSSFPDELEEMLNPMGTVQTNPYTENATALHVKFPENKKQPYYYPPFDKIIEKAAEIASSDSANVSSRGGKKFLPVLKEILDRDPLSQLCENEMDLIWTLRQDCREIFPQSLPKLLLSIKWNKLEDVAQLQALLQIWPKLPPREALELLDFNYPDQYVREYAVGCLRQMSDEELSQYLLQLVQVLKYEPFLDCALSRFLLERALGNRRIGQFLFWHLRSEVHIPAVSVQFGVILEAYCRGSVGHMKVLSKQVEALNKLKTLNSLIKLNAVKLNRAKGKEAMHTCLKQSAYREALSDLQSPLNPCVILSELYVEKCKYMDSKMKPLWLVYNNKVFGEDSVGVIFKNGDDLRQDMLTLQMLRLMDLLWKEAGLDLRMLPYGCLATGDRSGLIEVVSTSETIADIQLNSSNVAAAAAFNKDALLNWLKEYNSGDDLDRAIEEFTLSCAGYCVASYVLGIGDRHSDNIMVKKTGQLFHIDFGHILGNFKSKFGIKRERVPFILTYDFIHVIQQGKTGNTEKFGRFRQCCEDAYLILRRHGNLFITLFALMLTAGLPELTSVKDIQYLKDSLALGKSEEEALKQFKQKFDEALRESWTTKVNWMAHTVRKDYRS
UniProt P48736, whole entry: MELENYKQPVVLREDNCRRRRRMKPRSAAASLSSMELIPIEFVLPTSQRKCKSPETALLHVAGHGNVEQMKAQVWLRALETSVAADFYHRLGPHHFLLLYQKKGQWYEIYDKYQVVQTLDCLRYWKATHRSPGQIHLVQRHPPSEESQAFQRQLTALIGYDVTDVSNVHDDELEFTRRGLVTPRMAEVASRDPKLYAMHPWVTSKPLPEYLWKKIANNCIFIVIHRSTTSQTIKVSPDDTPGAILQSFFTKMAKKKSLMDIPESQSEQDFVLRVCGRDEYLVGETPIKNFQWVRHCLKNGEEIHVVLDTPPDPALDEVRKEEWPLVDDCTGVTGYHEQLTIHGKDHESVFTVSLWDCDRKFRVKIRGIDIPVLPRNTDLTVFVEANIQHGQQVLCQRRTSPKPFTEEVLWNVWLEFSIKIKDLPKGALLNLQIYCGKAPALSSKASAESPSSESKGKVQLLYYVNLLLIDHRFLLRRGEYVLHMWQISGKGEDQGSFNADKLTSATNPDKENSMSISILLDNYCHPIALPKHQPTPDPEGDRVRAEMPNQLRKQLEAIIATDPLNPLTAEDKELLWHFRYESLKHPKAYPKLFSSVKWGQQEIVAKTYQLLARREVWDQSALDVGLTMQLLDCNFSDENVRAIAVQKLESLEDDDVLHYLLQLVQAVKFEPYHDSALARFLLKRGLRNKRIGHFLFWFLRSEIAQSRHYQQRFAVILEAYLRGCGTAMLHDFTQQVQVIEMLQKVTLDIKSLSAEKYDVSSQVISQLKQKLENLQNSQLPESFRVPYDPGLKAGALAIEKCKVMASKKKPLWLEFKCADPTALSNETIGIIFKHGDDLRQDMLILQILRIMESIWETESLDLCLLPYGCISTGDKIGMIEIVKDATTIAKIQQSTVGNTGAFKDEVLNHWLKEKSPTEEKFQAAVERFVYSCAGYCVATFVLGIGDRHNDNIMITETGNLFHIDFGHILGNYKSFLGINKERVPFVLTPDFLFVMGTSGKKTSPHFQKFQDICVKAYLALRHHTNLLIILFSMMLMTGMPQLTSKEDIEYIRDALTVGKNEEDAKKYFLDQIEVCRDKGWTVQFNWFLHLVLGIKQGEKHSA
UniProt P42336, whole entry: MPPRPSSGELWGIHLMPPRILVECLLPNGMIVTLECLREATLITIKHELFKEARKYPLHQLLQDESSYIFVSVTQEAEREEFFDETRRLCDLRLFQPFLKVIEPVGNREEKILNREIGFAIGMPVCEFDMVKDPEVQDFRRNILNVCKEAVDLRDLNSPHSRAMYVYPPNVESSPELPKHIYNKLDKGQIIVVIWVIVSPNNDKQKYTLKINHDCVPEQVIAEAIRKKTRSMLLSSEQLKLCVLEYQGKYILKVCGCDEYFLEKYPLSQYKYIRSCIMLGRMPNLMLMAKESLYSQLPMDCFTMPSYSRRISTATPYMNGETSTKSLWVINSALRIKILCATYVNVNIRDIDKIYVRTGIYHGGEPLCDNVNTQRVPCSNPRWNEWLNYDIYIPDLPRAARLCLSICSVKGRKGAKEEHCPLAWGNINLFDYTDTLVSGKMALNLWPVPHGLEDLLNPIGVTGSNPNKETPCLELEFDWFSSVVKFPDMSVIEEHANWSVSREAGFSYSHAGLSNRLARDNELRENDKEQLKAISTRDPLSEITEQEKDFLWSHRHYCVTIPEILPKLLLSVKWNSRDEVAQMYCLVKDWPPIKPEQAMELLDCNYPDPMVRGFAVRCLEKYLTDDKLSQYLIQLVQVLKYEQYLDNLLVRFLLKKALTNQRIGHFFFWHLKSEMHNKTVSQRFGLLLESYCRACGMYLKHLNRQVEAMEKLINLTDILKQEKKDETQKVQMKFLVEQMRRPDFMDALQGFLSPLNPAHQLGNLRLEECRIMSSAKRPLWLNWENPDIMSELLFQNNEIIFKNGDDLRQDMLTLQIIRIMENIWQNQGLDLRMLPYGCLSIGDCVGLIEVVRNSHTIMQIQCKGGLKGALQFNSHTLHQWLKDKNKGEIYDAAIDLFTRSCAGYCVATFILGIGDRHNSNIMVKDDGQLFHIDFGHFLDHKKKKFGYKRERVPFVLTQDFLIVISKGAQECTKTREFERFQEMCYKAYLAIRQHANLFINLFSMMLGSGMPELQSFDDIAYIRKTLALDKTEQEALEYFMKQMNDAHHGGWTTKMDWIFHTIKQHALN
UniProt P27986, whole entry partner: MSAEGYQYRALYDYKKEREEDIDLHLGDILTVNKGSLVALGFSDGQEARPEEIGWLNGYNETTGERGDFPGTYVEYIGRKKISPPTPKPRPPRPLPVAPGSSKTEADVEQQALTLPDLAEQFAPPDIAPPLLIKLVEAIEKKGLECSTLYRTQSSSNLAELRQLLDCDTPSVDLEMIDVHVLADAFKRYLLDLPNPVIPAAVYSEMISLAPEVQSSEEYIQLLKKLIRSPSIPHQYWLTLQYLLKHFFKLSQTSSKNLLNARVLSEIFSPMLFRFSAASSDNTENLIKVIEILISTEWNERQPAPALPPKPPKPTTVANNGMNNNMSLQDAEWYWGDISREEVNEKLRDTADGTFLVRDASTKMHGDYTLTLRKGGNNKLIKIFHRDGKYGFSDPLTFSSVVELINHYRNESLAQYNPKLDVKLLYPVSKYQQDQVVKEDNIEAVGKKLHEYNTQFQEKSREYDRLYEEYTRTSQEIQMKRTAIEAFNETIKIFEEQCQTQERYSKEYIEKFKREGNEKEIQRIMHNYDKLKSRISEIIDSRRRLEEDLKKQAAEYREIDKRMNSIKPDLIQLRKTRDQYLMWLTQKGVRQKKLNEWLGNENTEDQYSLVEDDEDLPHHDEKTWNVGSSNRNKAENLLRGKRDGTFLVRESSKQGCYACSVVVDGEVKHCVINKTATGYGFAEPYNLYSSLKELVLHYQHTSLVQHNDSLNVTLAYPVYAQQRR

Experiments:
Assay in all cases: ADP-Glo cell-free PI3K kinase activity assay
PI3Kδ = PI3Kδ (Homo sapiens, UniProt O00329); details: read-out: Cell-free inhibitory IC50 PI3Kδ; ATP 25 μM; average of triple tests
PI3Kβ = PI3Kβ (Homo sapiens, UniProt P42338); details: read-out: Cell-free inhibitory IC50 PI3Kβ; ATP 25 μM; average of triple tests
PI3Kγ = PI3Kγ (Homo sapiens, UniProt P48736); details: read-out: Cell-free inhibitory IC50 PI3Kγ; ATP 25 μM; average of triple tests
PI3Kα = PI3Kα (Homo sapiens, UniProt P42336); details: read-out: Cell-free inhibitory IC50 PI3Kα; ATP 25 μM; average of triple tests

IC50 (PI3Kδ): > 20 µM
IC50 (PI3Kβ): > 20 µM
IC50 (PI3Kγ): 7.49 µM
IC50 (PI3Kα): 11.3 µM
SMILES: CC(=O)c1ccc2c(c1)c1cc(C(C)=O)ccc1n2C
